# Experimental data taken from BindingDB's records for PubMed 11082457 (Centre De Recherches De Croissy, 2000).
# Protein sequences, listed by entry. Tags and fused reporters are not part of them.
# UniProt P15823, whole entry: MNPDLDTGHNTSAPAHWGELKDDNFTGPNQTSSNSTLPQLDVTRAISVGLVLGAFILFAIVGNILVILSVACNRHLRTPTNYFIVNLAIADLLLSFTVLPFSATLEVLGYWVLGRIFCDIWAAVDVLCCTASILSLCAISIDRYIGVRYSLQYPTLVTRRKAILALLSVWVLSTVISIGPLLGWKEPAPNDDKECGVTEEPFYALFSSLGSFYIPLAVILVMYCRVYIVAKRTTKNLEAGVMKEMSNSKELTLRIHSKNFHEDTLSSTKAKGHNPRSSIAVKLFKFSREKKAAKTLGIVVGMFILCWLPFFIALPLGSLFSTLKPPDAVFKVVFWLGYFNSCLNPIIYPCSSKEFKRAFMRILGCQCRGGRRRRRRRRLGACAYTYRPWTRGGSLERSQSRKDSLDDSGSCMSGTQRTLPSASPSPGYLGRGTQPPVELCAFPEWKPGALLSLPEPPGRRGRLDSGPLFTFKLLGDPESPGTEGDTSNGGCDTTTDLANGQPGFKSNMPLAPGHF
# Assays:
# [1] = target: Alpha-1B adrenergic receptor (Rattus norvegicus, UniProt P15823)
# [2] = target: T1, Alpha-1A adrenergic receptor (Rattus norvegicus, UniProt P43140)
# T1 sequence (P43140 whole entry): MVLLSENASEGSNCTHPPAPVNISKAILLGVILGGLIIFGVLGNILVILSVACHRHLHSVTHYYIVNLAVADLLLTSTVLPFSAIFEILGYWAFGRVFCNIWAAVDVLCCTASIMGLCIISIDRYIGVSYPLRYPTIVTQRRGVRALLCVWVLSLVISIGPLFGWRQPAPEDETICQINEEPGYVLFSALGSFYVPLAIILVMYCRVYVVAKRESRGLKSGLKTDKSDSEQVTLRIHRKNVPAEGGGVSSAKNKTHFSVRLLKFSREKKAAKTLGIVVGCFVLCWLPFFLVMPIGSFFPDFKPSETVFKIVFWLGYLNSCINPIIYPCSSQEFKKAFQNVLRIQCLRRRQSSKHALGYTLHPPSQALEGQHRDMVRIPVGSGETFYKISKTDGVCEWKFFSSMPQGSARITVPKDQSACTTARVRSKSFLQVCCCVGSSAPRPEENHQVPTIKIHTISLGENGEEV
smiles,measurement,setting,value
"Clc1cccc(Cl)c1N=C1NCCN1 [2-(2,6-dichloroanilino)-2-imidazoline]",pKi,[1],6.50
same,pKi,[2],7.00

# pKi: −log10 of the molar value.
